{"sequences": {"note": "By UniProt entry, the sequences of proteins in these tests, tags left out.", "UniProt O95977, whole entry": "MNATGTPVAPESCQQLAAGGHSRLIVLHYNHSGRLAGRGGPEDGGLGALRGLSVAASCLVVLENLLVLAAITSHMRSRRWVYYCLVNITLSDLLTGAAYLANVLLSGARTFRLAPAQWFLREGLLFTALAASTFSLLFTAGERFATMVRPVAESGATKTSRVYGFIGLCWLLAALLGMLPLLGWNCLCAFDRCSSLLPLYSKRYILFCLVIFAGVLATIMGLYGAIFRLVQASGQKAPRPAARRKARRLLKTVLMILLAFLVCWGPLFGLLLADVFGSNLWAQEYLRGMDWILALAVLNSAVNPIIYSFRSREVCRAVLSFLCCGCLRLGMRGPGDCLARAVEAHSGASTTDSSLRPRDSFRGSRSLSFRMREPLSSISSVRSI"}, "source": "PubChem BioAssay AID1509", "about": "(The Scripps Research Institute Molecular Screening Center, 2009)", "note": "Only a part is listed here, and it is no random draw. The source made the active and inactive calls. Rule as the data show it: active = activation above about 11%; inactive = the rest.", "data": [{"biological_target": "Sphingosine 1-phosphate receptor 4 (Homo sapiens) (UniProt O95977)", "experiment": "S1P4 receptor agonists, primary screen, cell-based (AID 1509);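 also: 0% = DMSO vehicle and 100% = reference agonist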", "settings": "S1P4-expressing cell line, agonist reporter assay; at 4.98 µM; active compounds read high", "values": [{"molecule": "Cc1nc2ccc3ccccc3c2o1.O=[N+]([O-])c1cc([N+](=O)[O-])c(O)c([N+](=O)[O-])c1", "activation": "inactive: -1.7%"}, {"molecule": "COc1ccc(OP(C)(=O)Nc2ccccn2)cc1", "note": "(stereo unspecified)", "activation": "inactive: -2.02%"}, {"molecule": "CN(C)CCOC(=O)C(O)(c1ccccc1)C1CCCC1", "note": "(stereo unspecified)", "activation": "inactive: -3.37%"}, {"molecule": "COc1ccccc1OP(C)(=O)Nc1ccc(Br)cc1", "note": "(stereo unspecified)", "activation": "inactive: 0.1%"}, {"molecule": "COc1ccccc1OP(C)(=O)Nc1ccc(C)cc1C", "note": "(stereo unspecified)", "activation": "inactive: -2.18%"}, {"molecule": "CP(=O)(Nc1ccccn1)Oc1ccccc1", "note": "(stereo unspecified)", "activation": "inactive: -0.48%"}, {"molecule": "CCc1ccc(OP(C)(=O)O)cc1", "activation": "inactive: -1.96%"}, {"molecule": "O=[N+]([O-])c1cc([N+](=O)[O-])c(Nc2ccccn2)c([N+](=O)[O-])c1", "activation": "inactive: -0.63%"}, {"molecule": "Cc1c(NP(C)(=O)Oc2ccc(C(C)C)cc2)c(=O)n(-c2ccccc2)n1C", "note": "(stereo unspecified)", "activation": "inactive: -0.52%"}, {"molecule": "O=C(OCCCN1CCCC1)C(O)(c1ccccc1)C1CCCCC1", "note": "(stereo unspecified)", "activation": "inactive: 0.76%"}, {"molecule": "COc1ccccc1OP(C)(=O)Nc1c(C)n(C)n(-c2ccccc2)c1=O", "note": "(stereo unspecified)", "activation": "inactive: -0.26%"}, {"molecule": "CCc1ccc(OP(C)(=O)Nc2cccnc2)cc1", "note": "(stereo unspecified)", "activation": "inactive: -0.19%"}, {"molecule": "CP(=O)(Oc1ccccc1)N1CCOC1=O", "note": "(stereo unspecified)", "activation": "inactive: 0.06%"}, {"molecule": "COc1ccc(OP(C)(=O)Nc2ccc(Br)cc2)cc1", "note": "(stereo unspecified)", "activation": "inactive: 0.11%"}, {"molecule": "CCN(CC)CC(O)COC(=O)C(O)(c1ccccc1)C1CCCCC1", "note": "(stereo unspecified)", "activation": "inactive: 1.33%"}, {"molecule": "CN(C)C(=O)c1c([N+](=O)[O-])cc([N+](=O)[O-])cc1[N+](=O)[O-]", "activation": "inactive: 1.42%"}, {"molecule": "CC(C)(C)c1ccc(OP(C)(=O)O)cc1", "activation": "inactive: -0.78%"}, {"molecule": "COc1ccccc1OP(C)(=O)Nc1ccccc1Br", "note": "(stereo unspecified)", "activation": "inactive: -0.8%"}, {"molecule": "CP(=O)(Nc1ccc(Cl)cc1)Oc1ccc(F)cc1", "note": "(stereo unspecified)", "activation": "inactive: -0.26%"}, {"molecule": "CCOC(=O)c1ccc(NP(C)(=O)Oc2ccc(Cl)cc2)cc1", "note": "(stereo unspecified)", "activation": "inactive: 0.09%"}, {"molecule": "CP(=O)(OC12CC3CC(CC(C3)C1)C2)OC12CC3CC(CC(C3)C1)C2", "activation": "inactive: 3.13%"}]}]}
